Source: PubChem
SR-BI uptake up – activators of SR-BI mediated DiI-HDL uptake, primary screen, ldlA[mSR-BI] CHO cells, DiI fluorescence; 3 h; 100 = double the neutral-control signal; activation, % at 12.5 µM; hit rate 0.096% among 320,000;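 active = mean replicate activation of at least 60% and every replicate at or above 60%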
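Assay system: CHO ldlA[mSR-BI] cells, LDL receptor-null, SR-BI overexpressing; medium: Ham's F12 with 0.5% BSA, HEPES 25 mM, pH 7.4; also added: DiI-HDL 10 µg/mL; timing: 3 h uptake period with compound, 37 °C; signal: DiI fluorescence, bottom read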
INS-1E GSIS act – GLuc luminescence reporter in INS-1E cells, primary screen for activators of glucose-dependent secretion of insulin; INS-1E GLuc reporter insulin secretion, 2-3 h; activation, % at 16.6 µM; hit rate 0.61% among 370,000;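 active = lowest replicate activation of at least 40%, so every replicate reaches that level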
UUG fidelity – alters start codon recognition fidelity in yeast; S. cerevisiae UUG-firefly luciferase reporter, luminescence/redox ratio; activity score, % at 18.7 µM; actives 0.13% (n = 350,000); AID 602363;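 active = replicate mean at a twofold rise or more, about +100% in these data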;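 also: firefly luciferase made from a UUG start codon reports start codon fidelity; reporter light over untreated wells divided by growth signal over untreated wells; some hits fall short of that in this replicate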
SR-BI HDL uptake – inhibitors of SR-BI mediated HDL lipid uptake, primary screen, ldlA[mSR-BI] cells, fluorescence, single point; Scavenger receptor class B member 1 (Mus musculus), Q61009; ldlA[mSR-BI] CHO cells, DiI-HDL uptake fluorescence, 3 h; inhibition, % at 12.5 µM; hit rate 0.96% among 320,000; AID 488896, 2010;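 active = mean replicate inhibition of at least 70% and a set share of replicates each scoring 70 or more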
Hits are given with their value; - = inactive; . = no result given. Rows were chosen to be rich in hits. Some 1.3% of all compounds tested hit in one or more screens of this group.

SMILES | SR-BI uptake up | INS-1E GSIS act | UUG fidelity | SR-BI HDL uptake
O=C(COc1ccc(Cl)cc1)NCCS(=O)(=O)N1CCN(c2ccccc2F)CC1 | - | 41 | - | -
COc1cc(/C=N/Nc2ccccc2)ccc1O | - | - | - | -
COC(=O)c1[nH]c2cc(OC)c(OC)cc2c1/C=N/Nc1ccccc1 | - | - | . | 121
COc1ccccc1NC(=O)N(C)C[C@@H]1OCc2ccccc2-c2ccccc2C(=O)N([C@@H](C)CO)C[C@H]1C | . | - | . | .
COc1ccc2c3c(n(C)c2c1)[C@@H](CO)NCC31CCN(C(C)=O)CC1 | . | - | . | .
O=C(Nc1ccc(Br)cc1)c1cc2ccccn2n1 | - | 54 | - | -
COc1ccc(S(=O)(=O)N(C)C2CCN(C)CC2)cc1 | 263 | - | - | -
COc1ccc(CC(=O)Nc2ccc(S(=O)(=O)N(C)C3CCN(C)CC3)cc2)cc1 | - | - | - | -
C[C@@H]1CN([C@H](C)CO)C(=O)Cc2cc(NC(=O)Cc3cn(C)c4ccccc34)ccc2O[C@@H]1CN(C)C | . | - | - | .
CS(=O)(=O)N1CC2(C1)[C@H](c1ccccc1)[C@@H](CO)N2CC1CC1 | . | - | . | .
C[C@H](CO)N1C[C@H](C)[C@H](CN(C)Cc2ccc(C(=O)O)cc2)OCCCC[C@H](C)Oc2ccc(NC(=O)CCCN(C)C)cc2C1=O | . | - | - | .
COc1cccc(C(C(=O)NC2CCCC2)N(C(=O)c2ccco2)c2ccc(C(C)=O)cc2)c1OC (stereo unspecified) | 234 | - | - | -
CCOc1cc(C=NN=C2c3ccccc3-c3ccccc32)ccc1O | - | - | . | 76
Oc1cccc(C=NN=C2c3ccccc3-c3ccccc32)c1 | - | - | . | -
CCCN(CCC)C1=CC(=[N+]2CCCC2)CC(C)(C)C1 | 83 | - | . | -
COc1ccc(S(=O)(=O)N(C)C[C@@H]2Oc3c(NS(=O)(=O)c4ccc(F)cc4)cccc3C(=O)N([C@H](C)CO)C[C@H]2C)cc1 | . | - | - | .
Cc1cccc(NCc2ccccc2)c1 | - | 95 | - | -
CCOC(=O)C1=C(C)N=C2SCCC(=O)N2[C@@H]1c1cccs1 | 292 | . | - | -
CCOC(=O)C1=C(C)N=C2SCCC(=O)N2C1c1cccs1 (stereo unspecified) | - | - | - | -
CCC1(C(=O)OC)NC(c2ccco2)C2C(=O)N(c3ccc(C)cc3)C(=O)C21 (stereo unspecified) | 158 | - | - | -
CC(=O)Oc1ccc(C(=O)Nc2ccccc2C(=O)NCC(C)C)cc1 | - | - | - | 74
Cc1nc(N/N=C/c2ccc(O)cc2)c2cnn(-c3ccccc3)c2n1 | - | - | . | 75
Oc1ccccc1-c1nc(NC2CCCC2)c2ccccc2n1 | - | - | - | 82
CC(C)C(=O)N1CCN(c2ccccc2NC(=O)c2ccc(C#N)cc2F)CC1 | - | - | - | -
CC1CCN(c2ccccc2NC(=O)c2ccc(C#N)cc2F)CC1 | - | - | . | 77
SMILES | SR-BI uptake up | INS-1E GSIS act | UUG fidelity | SR-BI HDL uptake
C[C@@H]1CCCCO[C@@H](CN(C)C(=O)Nc2ccc(F)cc2)[C@@H](C)CN([C@H](C)CO)C(=O)c2cc(NC(=O)c3ccccc3)ccc2O1 | . | - | - | .
CCOC(=O)c1nc(NCc2cccnc2)c2ccccc2n1 | - | 46 | - | -
CC1(Cc2ccc(C(F)(F)F)o2)C(=O)Nc2ccc(-c3cccc(C(F)(F)F)c3)cc21 (stereo unspecified) | . | 173 | - | .
CCCC(C)C(=O)Nc1nc(C)c(-c2csc(Nc3ccc(Cl)cc3)n2)s1 (stereo unspecified) | - | - | - | 85
CCCCCCC(=O)Nc1nc(C)c(-c2csc(Nc3cc(Cl)ccc3C)n2)s1 | - | - | - | -
CCOc1ccccc1Nc1nc(-c2sc(NC(=O)c3cccc(Cl)c3)nc2C)cs1 | - | . | - | 104
CCCCC(=O)Nc1nc(C)c(-c2csc(Nc3cc(OC)ccc3OC)n2)s1 | - | - | - | 83
CCCC(C)C(=O)Nc1nc(C)c(-c2csc(Nc3ccccc3OC)n2)s1 (stereo unspecified) | - | - | - | 84
COc1ccccc1Nc1nc(-c2sc(NC(=O)c3ccccc3)nc2C)cs1 | - | - | - | -
Cc1noc(C)c1NC(=O)N(C)C[C@@H]1Oc2ccc(NC(=O)CCCCCC(=O)Nc3ccccc3N)cc2C(=O)N([C@H](C)CO)C[C@@H]1C | . | - | . | .
O=C(Nc1ccc(C(F)(F)F)cc1)N[C@@H]1CC[C@H](CC(=O)N2CCCCC2)O[C@@H]1CO | . | - | - | .
